Values quoted from earlier work, collected in article PMC10718521, “Complexity of αvβ6-integrin targeting RGD peptide trimers: emergence of non-specific binding by synergistic interaction” (RSC Medicinal Chemistry, 2023).

Chains of the proteins cited; added tags and fusions are not shown. Residues count along the entry.
UniProt P06756, 31-992 limits assumed: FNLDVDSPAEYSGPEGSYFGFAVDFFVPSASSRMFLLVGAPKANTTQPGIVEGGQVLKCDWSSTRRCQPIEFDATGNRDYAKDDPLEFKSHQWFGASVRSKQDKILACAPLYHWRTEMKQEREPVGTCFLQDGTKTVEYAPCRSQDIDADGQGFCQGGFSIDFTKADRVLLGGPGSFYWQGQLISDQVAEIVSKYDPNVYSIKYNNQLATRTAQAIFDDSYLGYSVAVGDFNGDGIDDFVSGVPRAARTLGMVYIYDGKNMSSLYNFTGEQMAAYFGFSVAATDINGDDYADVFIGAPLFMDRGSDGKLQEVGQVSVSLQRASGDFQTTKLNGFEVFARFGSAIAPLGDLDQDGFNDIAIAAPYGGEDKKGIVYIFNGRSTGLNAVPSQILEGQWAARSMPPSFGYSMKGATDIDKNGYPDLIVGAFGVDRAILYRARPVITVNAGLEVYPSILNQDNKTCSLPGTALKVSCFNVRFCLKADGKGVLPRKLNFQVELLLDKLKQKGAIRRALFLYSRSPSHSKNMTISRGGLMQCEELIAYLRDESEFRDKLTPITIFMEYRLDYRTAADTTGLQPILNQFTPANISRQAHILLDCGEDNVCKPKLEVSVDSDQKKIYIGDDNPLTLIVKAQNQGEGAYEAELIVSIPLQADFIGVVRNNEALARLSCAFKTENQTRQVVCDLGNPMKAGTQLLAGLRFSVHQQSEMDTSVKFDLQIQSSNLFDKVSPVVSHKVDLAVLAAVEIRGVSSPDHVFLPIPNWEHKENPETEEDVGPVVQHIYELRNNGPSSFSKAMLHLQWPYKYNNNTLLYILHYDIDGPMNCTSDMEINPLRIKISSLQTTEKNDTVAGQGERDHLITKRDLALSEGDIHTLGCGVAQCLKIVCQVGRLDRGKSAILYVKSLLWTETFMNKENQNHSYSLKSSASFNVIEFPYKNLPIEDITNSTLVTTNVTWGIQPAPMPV
UniProt P18564, 22-707 limits assumed: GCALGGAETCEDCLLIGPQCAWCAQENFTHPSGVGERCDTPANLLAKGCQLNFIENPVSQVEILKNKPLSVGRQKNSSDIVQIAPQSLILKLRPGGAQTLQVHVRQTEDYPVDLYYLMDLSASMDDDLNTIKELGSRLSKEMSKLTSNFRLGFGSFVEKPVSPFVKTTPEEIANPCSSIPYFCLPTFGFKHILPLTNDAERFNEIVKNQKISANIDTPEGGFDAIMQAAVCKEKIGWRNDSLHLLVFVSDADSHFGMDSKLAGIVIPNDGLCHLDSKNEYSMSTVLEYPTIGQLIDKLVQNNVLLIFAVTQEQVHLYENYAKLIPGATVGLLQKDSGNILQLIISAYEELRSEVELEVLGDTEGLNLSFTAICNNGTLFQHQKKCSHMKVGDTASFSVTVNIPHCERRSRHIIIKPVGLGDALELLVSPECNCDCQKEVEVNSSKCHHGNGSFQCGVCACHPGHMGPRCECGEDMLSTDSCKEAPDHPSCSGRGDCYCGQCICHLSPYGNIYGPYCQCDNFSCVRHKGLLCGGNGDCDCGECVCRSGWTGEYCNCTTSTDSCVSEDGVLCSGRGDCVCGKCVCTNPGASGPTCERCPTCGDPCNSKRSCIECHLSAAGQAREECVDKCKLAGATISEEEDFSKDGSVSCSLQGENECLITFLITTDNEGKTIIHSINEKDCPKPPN

Biological target: αvβ6-integrin (Homo sapiens, UniProt P06756+P18564)
Conditions: IC50-based; cited from earlier work

C#CCCC(=O)NCCCC[C@H]1C(=O)N[C@@H](Cc2ccc(O)cc2)C(=O)N[C@@H](CCCNC(=N)N)C(=O)NCC(=O)N[C@@H](CC(=O)O)C(=O)N[C@@H](CC(C)C)C(=O)N[C@@H](C)C(=O)N[C@@H](Cc2ccc(O)cc2)C(=O)N2CCC[C@@H]2C(=O)N1C
αvβ6-selectivity over α5β1: 179 | αvβ6-selectivity over αvβ3: 261 | αvβ6-selectivity over αvβ8: 31

C#CCCC(=O)NCCCC[C@H]1C(=O)N[C@@H](Cc2ccccc2)C(=O)N[C@@H](CCCNC(=N)N)C(=O)NCC(=O)N[C@@H](CC(=O)O)C(=O)N[C@@H](CC(C)C)C(=O)N[C@@H](C)C(=O)N[C@@H](Cc2ccccc2)C(=O)N2CCC[C@@H]2C(=O)N1C
αvβ6-selectivity over α5β1: 1330 | αvβ6-selectivity over αvβ3: 2490 | αvβ6-selectivity over αvβ8: 188
